# Molecular target: NADH:ubiquinone oxidoreductase (Complex I) (Bos taurus, UniProt P03887+P17694+P42026)
# Protein sequences, listed by entry. Tags and fused reporters are not part of them. Residues count along the entry.
# UniProt P03887, whole entry: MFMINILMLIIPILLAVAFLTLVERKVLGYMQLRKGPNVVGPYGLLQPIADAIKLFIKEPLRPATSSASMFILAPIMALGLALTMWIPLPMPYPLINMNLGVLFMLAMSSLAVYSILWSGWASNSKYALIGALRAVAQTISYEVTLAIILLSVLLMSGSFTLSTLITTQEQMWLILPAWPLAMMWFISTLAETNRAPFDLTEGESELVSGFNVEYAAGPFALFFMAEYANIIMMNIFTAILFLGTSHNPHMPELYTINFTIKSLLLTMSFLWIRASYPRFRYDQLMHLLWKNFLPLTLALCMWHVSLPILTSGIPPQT
# UniProt P17694, 34-463 limits assumed: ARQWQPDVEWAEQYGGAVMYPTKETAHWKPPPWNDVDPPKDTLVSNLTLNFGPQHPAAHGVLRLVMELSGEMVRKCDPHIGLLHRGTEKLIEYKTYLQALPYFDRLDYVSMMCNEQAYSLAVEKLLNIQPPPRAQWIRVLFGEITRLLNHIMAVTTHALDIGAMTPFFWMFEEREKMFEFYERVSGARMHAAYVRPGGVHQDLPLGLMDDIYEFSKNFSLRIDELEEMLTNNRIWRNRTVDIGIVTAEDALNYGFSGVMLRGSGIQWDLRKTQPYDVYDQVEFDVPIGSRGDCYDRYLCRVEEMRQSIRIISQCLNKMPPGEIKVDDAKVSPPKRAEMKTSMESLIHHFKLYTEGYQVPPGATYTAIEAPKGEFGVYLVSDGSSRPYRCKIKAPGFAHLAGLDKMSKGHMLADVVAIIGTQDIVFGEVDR
# UniProt P42026, 38-216 limits assumed: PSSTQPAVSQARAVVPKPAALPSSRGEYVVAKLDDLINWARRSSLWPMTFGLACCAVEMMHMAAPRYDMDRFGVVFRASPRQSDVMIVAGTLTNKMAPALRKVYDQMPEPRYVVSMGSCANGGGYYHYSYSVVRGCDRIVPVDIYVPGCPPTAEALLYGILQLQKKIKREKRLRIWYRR
# Experiment: inhibitory potency for NADH:ubiquinone oxidoreductase activity in vitro using bovine heart electron transport particles
# Format: biochemical
# Experimental: This primary library was screened for inhibitory potency against NADH:ubiquinone oxidoreductase activity as described below. […] As described below, a series of focused libraries were then synthesized using a combination of solid and solution phase chemistry in an attempt to evaluate particular structural sub-regions (denoted I-IV in FIG. 9) of the lead structure, thus allowing structure activity relationships to be developed.
# (§1) SAR optimization was carried out on each of the four regions (I-IV) of interest guided by the inhibitory potency for NADH:ubiquinone oxidoreductase activity in vitro using bovine heart electron transport particles (see Singer (Singer, T. P. (1974). In Methods of Biochemical Analysis (Glick, D. ed., Wiley New York), 22, pp. 123-175) for details).
# as §1, with “FIG. 15 is a graphical summary of structure activity trends observed for benzopyran-based inhibitors of NADH:ubiquinone oxidoreductase. SAR” for “SAR”, “T.P.” for “T. P.”
row,SMILES,IC50 [nM]
1,COc1cc(Br)c(COC(=O)c2ccc3c(c2)C=CC(C)(C)O3)cc1OC,49
2,COc1cc(COC(=O)c2ccc3c(c2O)C=CC(C)(C)O3)cc(OC)c1OC,44

# From patent US7410998B2, “Inhibitors of NADH:ubiquinone oxidoreductase” (The Scripps Research Institute, priority 2000, dated 2008)
